# From US20160250221A1, “INHIBITORS OF FAPP2 AND USES THEREOF” (FONDAZIONE TELETHON, priority 2013, published 2016)
# Biological target: T1, FAPP2-HIS-SUMO-C-212 (Homo sapiens, UniProt Q96JA3)
# T1 construct: the recombinant FAPP2 protein is FAPP2-GLTP-C212 or FAPP2 Full-Length (FL)
# T1 sequence (Q96JA3 310-519 limits assumed): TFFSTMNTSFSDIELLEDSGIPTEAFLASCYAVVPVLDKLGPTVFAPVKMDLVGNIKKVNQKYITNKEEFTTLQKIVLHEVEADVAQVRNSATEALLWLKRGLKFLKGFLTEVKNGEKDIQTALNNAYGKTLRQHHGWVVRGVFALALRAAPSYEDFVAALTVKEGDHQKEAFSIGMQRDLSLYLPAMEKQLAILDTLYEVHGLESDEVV
# Test: FRET GlcCer transfer assay with FAPP2-C212 (384-well)
# Type: biochemical
# Experimental: FAPP2 transfer activity has been evaluated using Fluorescence Resonance Energy Transfer. The FRET assay involves mixing of acceptor vesicles (formed by sonication of 1,2-dioleoyl-sn-glycero-3-phosphocholine (DOPC) suspended in buffer) with donor vesicles containing TopFLUOR-labeled GlcCer (1 mole %) and Di1C18 used as quencher (3 mole %), and recombinant FAPP2 protein (0.5 uM). Recovery of emission intensity at 520 nm (excitation at 485 nm) occurs during FAPP2-mediated transfer of GlcosylCeramide from quenched donor vesicles to unquenched acceptor vesicles. The assay has been performed using FAPP2-GLTP-C212 or FAPP2 Full-Length (FL). In order to conduct the high throughput inhibitor screen, the transfer activity assay was adapted to a microplate format (384 well plate) and read using Synergy Neo HTS Multi-Mode Microplate Reader. First, mixture containing 30 ul of acceptor small unilamellar vesicles, FAPP2 transport protein, and drug in buffer was added to each well in triplicate and read for 1 min to calculate the fluorescence baseline. Then 30 ul donor vesicles were added to each well and read for 15 or 30 mins. Since the increase in fluorescence emission occurs exclusively in presence of FAPP2 transport, the inhibition rate of each compound is evaluated by its ability to decrease the fluorescence emission.
compound,measurement,value
Cc1ccc(-c2ccc(F)cc2COc2ccc(CCC(=O)O)cc2)cc1 [TUG-891],inhibition of FAPP2 transfer activity,50%
